The source of these data is ChEMBL document CHEMBL1137191, “Evaluation of pyrrolidin-2-imines and 1,3-thiazolidin-2-imines as inhibitors of nitric oxide synthase” (Bioorg Med Chem Lett, 2004).

By UniProt entry, the sequences of proteins in these tests, tags left out.
UniProt P35228, whole entry: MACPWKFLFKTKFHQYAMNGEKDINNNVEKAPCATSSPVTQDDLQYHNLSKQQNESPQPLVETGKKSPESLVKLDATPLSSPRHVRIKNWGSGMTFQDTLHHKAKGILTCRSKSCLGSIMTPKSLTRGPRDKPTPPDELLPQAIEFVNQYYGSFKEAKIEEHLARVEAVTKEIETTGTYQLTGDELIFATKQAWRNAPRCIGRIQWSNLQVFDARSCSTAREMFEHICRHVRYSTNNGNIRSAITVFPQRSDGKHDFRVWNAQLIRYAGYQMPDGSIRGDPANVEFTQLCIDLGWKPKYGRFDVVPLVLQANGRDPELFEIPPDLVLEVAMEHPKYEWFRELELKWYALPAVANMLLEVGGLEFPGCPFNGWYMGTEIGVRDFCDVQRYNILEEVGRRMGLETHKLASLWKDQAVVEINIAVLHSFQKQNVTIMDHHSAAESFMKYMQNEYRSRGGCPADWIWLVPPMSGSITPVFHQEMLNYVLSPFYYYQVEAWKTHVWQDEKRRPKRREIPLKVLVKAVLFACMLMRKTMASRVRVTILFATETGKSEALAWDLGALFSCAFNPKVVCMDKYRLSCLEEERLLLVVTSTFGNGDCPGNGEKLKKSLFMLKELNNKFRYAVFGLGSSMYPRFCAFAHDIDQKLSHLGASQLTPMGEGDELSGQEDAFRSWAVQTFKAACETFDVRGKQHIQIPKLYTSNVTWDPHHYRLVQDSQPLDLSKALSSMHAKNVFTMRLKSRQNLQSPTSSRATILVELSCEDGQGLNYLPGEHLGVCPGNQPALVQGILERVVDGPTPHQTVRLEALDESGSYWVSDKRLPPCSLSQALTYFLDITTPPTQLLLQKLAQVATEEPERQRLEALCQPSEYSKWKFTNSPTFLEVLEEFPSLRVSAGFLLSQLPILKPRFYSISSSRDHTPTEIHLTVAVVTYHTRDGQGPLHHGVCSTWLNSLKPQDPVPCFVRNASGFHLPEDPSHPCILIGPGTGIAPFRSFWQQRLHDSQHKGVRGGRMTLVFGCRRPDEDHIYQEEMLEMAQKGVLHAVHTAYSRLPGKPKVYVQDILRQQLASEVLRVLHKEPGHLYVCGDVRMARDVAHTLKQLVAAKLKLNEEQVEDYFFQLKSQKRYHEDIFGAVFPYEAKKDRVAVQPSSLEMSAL

Assay [1] has as its target Nitric oxide synthase, inducible (Homo sapiens, UniProt P35228). Kind of assay: Inhibitory activity against Inducible nitric oxide synthase.
The next assay addresses T1, Nitric oxide synthase 3 (Homo sapiens, UniProt P29474).
T1 sequence (P29474 whole entry): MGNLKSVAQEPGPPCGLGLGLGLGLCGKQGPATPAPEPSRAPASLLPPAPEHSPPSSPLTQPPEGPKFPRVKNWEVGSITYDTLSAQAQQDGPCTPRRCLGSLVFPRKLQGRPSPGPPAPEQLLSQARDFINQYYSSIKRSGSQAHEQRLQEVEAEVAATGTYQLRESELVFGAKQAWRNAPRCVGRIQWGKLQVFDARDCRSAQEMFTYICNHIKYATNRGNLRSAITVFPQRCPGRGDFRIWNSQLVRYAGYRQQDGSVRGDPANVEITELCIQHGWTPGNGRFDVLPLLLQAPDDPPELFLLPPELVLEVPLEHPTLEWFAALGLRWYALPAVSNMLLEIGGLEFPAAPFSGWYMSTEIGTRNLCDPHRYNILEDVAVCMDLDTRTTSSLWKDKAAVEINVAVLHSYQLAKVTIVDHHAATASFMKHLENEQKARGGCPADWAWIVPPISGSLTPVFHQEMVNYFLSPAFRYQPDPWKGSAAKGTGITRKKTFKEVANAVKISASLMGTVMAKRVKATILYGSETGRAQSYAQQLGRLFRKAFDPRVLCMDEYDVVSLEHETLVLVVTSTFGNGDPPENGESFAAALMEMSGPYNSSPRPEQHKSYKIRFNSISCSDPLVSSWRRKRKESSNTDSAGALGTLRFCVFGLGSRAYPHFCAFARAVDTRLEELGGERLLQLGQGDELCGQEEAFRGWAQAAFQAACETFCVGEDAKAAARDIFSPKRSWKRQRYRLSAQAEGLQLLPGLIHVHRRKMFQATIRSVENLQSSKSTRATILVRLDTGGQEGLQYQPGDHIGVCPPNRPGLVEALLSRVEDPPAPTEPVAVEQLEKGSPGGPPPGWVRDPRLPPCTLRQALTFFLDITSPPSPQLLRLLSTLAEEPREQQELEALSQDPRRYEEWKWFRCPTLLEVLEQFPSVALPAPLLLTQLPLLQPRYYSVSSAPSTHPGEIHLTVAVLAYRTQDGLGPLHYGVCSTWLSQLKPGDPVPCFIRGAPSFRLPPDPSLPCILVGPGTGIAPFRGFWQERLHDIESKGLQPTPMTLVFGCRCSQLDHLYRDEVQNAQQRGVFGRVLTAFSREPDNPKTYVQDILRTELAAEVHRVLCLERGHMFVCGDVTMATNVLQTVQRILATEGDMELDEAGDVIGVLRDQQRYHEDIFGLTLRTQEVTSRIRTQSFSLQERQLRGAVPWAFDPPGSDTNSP
In words: Inhibitory activity against Endothelial nitric oxide synthase.

As to `NC1=NCC2CCCCC12` (configuration not stated), the IC50 in assay [1] was determined as 1.2 µM; against Nitric oxide synthase 3 it was 24 µM.

For orientation: IC50 means the midpoint of a concentration-inhibition curve.
